The source of these data is patent US4758421A, “Bleomycin conjugates and method” (priority 1985, dated 1988).

The subject of the test is Chinese hamster ovary (CHO) cells. The test can be described thus: CHO cell survival after 60 minutes exposure (FIG. 4). Type of test: cell-based. As for the experimental part:
Chinese hamster ovary (CHO) cells were cultured in standard cell-culture medium, under log phase growth conditions. Increasing concentrations of either BL--Co--S--FeEDTA or FeEDTA were added to each of two groups of cells. The cells were incubated for 60 minutes at 37° C., and the percent cell survivors was determined conventionally by serial dilution in microtitre plates.

As for bleomycin [metal free bleomycin], the cell toxicity result was “high toxicity”.
